Amino acid sequences for entries named in this document (tags omitted). A change or cut given only in a name is not applied to a line headed by its entry.
UniProt O60502: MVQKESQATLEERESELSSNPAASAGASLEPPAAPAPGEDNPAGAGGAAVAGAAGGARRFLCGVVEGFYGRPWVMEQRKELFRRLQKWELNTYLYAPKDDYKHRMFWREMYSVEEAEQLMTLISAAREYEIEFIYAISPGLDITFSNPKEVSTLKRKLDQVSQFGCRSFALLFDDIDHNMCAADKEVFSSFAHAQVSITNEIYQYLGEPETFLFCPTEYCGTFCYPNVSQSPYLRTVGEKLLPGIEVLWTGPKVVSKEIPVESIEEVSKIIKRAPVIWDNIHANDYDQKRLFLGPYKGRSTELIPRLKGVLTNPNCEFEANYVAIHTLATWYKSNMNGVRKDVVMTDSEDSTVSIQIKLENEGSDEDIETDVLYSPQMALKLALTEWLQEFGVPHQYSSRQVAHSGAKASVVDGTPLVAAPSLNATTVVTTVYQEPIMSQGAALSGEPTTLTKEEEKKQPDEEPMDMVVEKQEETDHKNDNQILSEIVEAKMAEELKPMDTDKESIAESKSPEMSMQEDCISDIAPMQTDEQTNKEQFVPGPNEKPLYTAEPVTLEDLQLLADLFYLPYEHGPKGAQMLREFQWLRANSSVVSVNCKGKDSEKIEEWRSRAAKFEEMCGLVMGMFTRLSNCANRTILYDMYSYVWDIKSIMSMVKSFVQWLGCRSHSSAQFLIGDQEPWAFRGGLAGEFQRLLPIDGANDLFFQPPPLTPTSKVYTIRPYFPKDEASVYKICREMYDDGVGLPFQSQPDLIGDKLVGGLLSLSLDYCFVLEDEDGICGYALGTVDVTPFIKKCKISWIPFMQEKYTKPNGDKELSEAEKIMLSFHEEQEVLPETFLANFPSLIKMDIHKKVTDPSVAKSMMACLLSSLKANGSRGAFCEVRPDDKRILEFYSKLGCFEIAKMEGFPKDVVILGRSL
UniProt Q8VIJ5: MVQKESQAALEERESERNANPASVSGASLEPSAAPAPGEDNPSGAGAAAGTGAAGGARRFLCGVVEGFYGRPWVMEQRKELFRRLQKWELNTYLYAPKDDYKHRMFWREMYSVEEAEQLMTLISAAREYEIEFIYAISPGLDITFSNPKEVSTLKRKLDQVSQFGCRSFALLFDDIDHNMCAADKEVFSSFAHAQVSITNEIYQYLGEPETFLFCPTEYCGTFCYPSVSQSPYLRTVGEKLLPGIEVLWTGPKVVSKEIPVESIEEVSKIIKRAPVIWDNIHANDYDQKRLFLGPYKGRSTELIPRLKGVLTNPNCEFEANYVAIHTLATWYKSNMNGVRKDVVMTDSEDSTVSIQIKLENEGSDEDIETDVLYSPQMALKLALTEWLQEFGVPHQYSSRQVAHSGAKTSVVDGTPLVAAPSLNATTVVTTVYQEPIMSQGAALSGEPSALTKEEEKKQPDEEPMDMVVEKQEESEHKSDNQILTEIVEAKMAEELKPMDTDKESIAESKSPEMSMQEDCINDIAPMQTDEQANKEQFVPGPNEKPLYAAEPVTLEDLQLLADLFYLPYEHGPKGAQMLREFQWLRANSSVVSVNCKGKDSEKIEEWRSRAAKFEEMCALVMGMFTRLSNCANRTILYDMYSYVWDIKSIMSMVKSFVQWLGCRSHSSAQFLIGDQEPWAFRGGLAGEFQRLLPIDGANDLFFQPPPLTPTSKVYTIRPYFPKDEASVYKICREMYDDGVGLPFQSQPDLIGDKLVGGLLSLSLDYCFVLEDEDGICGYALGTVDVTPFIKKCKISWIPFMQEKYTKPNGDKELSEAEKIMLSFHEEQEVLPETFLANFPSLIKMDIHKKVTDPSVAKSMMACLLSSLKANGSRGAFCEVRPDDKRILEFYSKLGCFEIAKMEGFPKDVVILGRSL

In patent US9409924B2, “Selective glycosidase inhibitors and uses thereof” (Alectos Therapeutics Inc., priority 2011, dated 2016):

What was measured:
human O-GlcNAcase = human O-GlcNAcase (Homo sapiens (Human), UniProt O60502); test: Assay for determination of KI values for inhibition of O-GlcNAcase activity (fluorescence-based hOGA); type: biochemical; conditions: purified human O-GlcNAcase, 4-Methylumbelliferyl N-acetyl-β-D-glucosaminide substrate, pH 7.0, Cheng-Prusoff
Method: Assay for Determination of KI Values for Inhibition of O-GlcNAcase Activity
Experimental Procedure for Kinetic Analyses:
Enzymatic reactions were carried out in a reaction containing 50 mM NaH2PO4, 100 mM NaCl and 0.1% BSA (pH 7.0) using 2 mM 4-Methylumbelliferyl N-acetyl-β-D-glucosaminide dihydrate (Sigma M2133) dissolved in ddH2O, as a substrate. The amount of purified human O-GlcNAcase enzyme used in the reaction was 0.7 nM. Test compound of varying concentrations was added to the enzyme prior to initiation of the reaction. The reaction was performed at room temperature in a 96-well plate and was initiated with the addition of substrate. […] The slope of product production was determined for each concentration of compound tested and plotted, using standard curve fitting algorithms for sigmoidal dose response curves. The values for a four parameter logistic curve fit of the data were determined.

O-GlcNAcase = O-GlcNAcase (Rattus norvegicus (Rat), UniProt Q8VIJ5); test: Cell-based ELISA of O-GlcNAcylated protein (RL-2 antibody) for cellular activity of O-GlcNAcase inhibitors; conditions: rat PC-12 cells, 24 h treatment, O-GlcNAcylated protein detected with RL-2 antibody
Description: Assay for Determination of Cellular Activity for Compounds that Inhibit O-GlcNAcase Activity
Inhibition of O-GlcNAcase, which removes O-GlcNAc from cellular proteins, results in an increase in the level of O-GlcNAcylated protein in cells. An increase in O-GlcNAcylated protein can be measured by an antibody, such as RL-2, that binds to O-GlcNAcylated protein. The amount of O-GlcNAcylated protein:RL2 antibody interaction can be measured by enzyme linked immunosorbant assay (ELISA) procedures.
A variety of tissue culture cell lines, expressing endogenous levels of O-GlcNAcase, can be utilized; examples include rat PC-12, and human U-87, or SK—N—SH cells. […] Compounds to be tested were dissolved in DMSO, either 2 or 10 mM stock solution, and then diluted with DMSO and water in a two-step process using a Tecan workstation. […] If desired, the total protein concentration of samples was determined using 20 μL of the sample using the BCA method. […]
The amount of O-GlcNAcylated protein, as detected by the ELISA assay, was plotted for each concentration of test compound using standard curve fitting algorithms for sigmoidal dose response curves. The values for a four parameter logistic curve fit of the data were determined, with the inflection point of the curve being the potency value for the test compound.

SMILES	Ki (human O-GlcNAcase)	EC50 (O-GlcNAcase)
CNC1=N[C@@H]2[C@@H](F)[C@@H](O)[C@@H]([C@H](C)O)O[C@@H]2S1 [Example 46, (3aR,5R,6S,7R,7aR)-7-fluoro-5-((S)-1-hydroxyethyl)-2-(methylamino)-5,6,7,7a-tetrahydro-3aH-pyrano[3,2-d]thiazol-6-ol]	562 nM	–
CNC1=N[C@@H]2[C@H](F)[C@H](O)[C@@H]([C@H](C)O)O[C@@H]2S1 [Example 34, (3aR,5R,6R,7S,7aR)-7-fluoro-5-((S)-1-hydroxyethyl)-2-(methylamino)-5,6,7,7a-tetrahydro-3aH-pyrano[3,2-d]thiazol-6-ol]	0.3 nM	5.2 nM
CNC1=N[C@@H]2[C@@H](F)[C@H](O)[C@@H]([C@H](C)O)O[C@@H]2S1 [Example 1, (3aR,5R,6R,7R,7aR)-7-fluoro-5-((S)-1-hydroxyethyl)-2-(methylamino)-5,6,7,7a-tetrahydro-3aH-pyrano[3,2-d]thiazol-6-ol]	1.1 nM	13 nM
